Columns and labels:
[1] = target: T1, Dual specificity protein kinase CLK4 (Homo sapiens, UniProt Q9HAZ1)
[2] = target: T1, Dual specificity protein kinase CLK4; assay: Inhibition of CLK4 (unknown origin) by bioluminescence assay

Sequences of proteins named here, by UniProt entry; tags and fusion partners are left off. A change or cut given only in a name is not applied to a line headed by its entry.
UniProt Q9HAZ1: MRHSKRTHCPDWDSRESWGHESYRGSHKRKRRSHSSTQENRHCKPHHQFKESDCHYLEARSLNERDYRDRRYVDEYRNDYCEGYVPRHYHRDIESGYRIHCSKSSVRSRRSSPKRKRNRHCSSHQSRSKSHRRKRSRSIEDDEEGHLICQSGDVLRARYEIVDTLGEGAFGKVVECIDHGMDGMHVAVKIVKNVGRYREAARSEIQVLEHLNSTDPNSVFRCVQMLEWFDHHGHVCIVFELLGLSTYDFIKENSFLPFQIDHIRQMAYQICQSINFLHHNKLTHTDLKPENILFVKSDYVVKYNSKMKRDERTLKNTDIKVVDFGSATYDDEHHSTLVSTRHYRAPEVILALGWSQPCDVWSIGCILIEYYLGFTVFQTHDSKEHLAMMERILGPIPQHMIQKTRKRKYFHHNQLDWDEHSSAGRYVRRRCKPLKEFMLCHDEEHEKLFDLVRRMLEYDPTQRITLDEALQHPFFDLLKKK

SMILES	IC50 [1] [µM]	IC50 [2] [µM]
c1cncc(CNc2ncncc2-c2ccc3c(c2)OCO3)c1	7.54	–
Cc1noc(C)c1-c1nccc(NCc2ccccc2)n1	–	22.4

Reference: ChEMBL document CHEMBL2390846, “Small-molecule pyrimidine inhibitors of the cdc2-like (Clk) and dual specificity tyrosine phosphorylation-regulated (Dyrk) kinases: development of chemical probe ML315” (Bioorg Med Chem Lett, 2013)
